In US9682983B2, “BMP inhibitors and methods of use thereof” (THE BRIGHAM AND WOMEN'S HOSPITAL, INC., priority 2013, dated 2017):

What follows are compounds tested on TGF-β signaling activity (CAGA-Luc, human embryonic kidney 293T cells) (assay: Cell luciferase assay, TGFβ (293T CAGA-Luc, TGF-β1 ligand)). Conditions: HEK-293T, read-out: Cellular Assay IC50 (nM) TGFβ.

| Structure (SMILES) | IC50 [nM] |
| --- | --- |
| c1ccc2c(-c3cnn4cc(-c5ccc(N6CCNCC6)cn5)cnc34)ccnc2c1 [Compound 3] | 905 |
| C(#Cc1cnc2c(-c3ccnc4ccccc34)cnn2c1)CN1CCNCC1 [Compound 4, 4-(6-(3-(piperazin-1-yl)prop-1-ynyl)pyrazolo[1,5-a]pyrimidin-3-yl)quinoline] | 2700 |
| c1ccc2c(-c3cnn4cc(-c5cnc(N6CCNCC6)nc5)cnc34)ccnc2c1 [Compound 5, 4-(6-(2-(piperazin-1-yl)pyrimidin-5-yl)pyrazolo[1,5-a]pyrimidin-3-yl)quinoline] | 40600 |
| c1ccc2c(-c3cnn4cc(-c5ccc(N6C[C@@H]7C[C@H]6CN7)cc5)cnc34)ccnc2c1 [Compound 6, 4-(6-(4-((1S,4S)-2,5-diazabicyclo[2.2.1]heptan-2-yl)phenyl)pyrazolo[1,5-a]pyrimidin-3-yl)quinoline] | 39 |
| c1ccc2c(-c3cnn4cc(-c5ncc(N6CCNCC6)s5)cnc34)ccnc2c1 [Compound 7, 5-(piperazin-1-yl)-2-(3-(quinolin-4-yl)pyrazolo[1,5-a]pyrimidin-6-yl)thiazole] | 3530 |
| Oc1cc(-c2cnn3cc(-c4ccc(N5CCNCC5)cc4)cnc23)c2ccccc2n1 [Compound 9, 4-(6-(4-(piperazin-1-yl)phenyl)pyrazolo[1,5-a]pyrimidin-3-yl)quinolin-2-ol] | 36100 |
| Cc1cc(-c2cnn3cc(-c4ccc(N5[C@H](C)CNC[C@@H]5C)cc4)cnc23)c2ccccc2n1 [Compound 11, 4-(6-(4-((2R,6S)-2,6-dimethylpiperazin-1-yl)phenyl)pyrazolo[1,5-a]pyrimidin-3-yl)-2-methylquinoline] | 30 |
| Cc1cc(-c2cnn3cc(-c4ccc(C5CCNCC5)cc4)cnc23)c2ccccc2n1 [Compound 13, 2-methyl-4-(6-(6-(piperazin-1-yl)pyridin-3-yl)pyrazolo[1,5-a]pyrimidin-3-yl)quinoline] | 198 |
| OCCNCc1ccc2c(-c3cnn4cc(-c5ccc(N6CCNCC6)cc5)cnc34)ccnc2c1 [Compound 14, 2-(((4-(6-(4-(piperazin-1-yl)phenyl)pyrazolo[1,5-a]pyrimidin-3-yl)quinolin-7-yl)methyl)amino)ethanol] | 2520 |
| NC(=O)c1ccc2c(-c3cnn4cc(-c5ccc(N6CCNCC6)cc5)cnc34)ccnc2c1 [Compound 15, 4-(6-(4-(piperazin-1-yl)phenyl)pyrazolo[1,5-a]pyrimidin-3-yl)quinoline-7-carboxamide] | 1300 |
| OCc1ccc2c(-c3cnn4cc(-c5ccc(N6CCNCC6)cc5)cnc34)ccnc2c1 [Compound 16, (4-(6-(4-(piperazin-1-yl)phenyl)pyrazolo[1,5-a]pyrimidin-3-yl)quinolin-7-yl)methanol] | 4060 |
| CNCc1ccc2c(-c3cnn4cc(-c5ccc(N6CCNCC6)cc5)cnc34)ccnc2c1 [Compound 18, N-methyl-1-(4-(6-(4-(piperazin-1-yl)phenyl)pyrazolo[1,5-a]pyrimidin-3-yl)quinolin-7-yl)methanamine] | 4160 |
| CN(C)Cc1ccc2c(-c3cnn4cc(-c5ccc(N6CCNCC6)cc5)cnc34)ccnc2c1 [Compound 19, N,N-dimethyl-1-(4-(6-(4-(piperazin-1-yl)phenyl)pyrazolo[1,5-a]pyrimidin-3-yl)quinolin-7-yl)methanamine] | 13000 |
| NCc1ccc2c(-c3cnn4cc(-c5ccc(N6CCNCC6)cc5)cnc34)ccnc2c1 [Compound 20, (4-(6-(4-(piperazin-1-yl)phenyl)pyrazolo[1,5-a]pyrimidin-3-yl)quinolin-7-yl)methanamine] | 2960 |
| c1cc(-c2cnn3cc(-c4ccc(N5CCNCC5)cc4)cnc23)c2ccc(CN3CCCC3)cc2n1 [Compound 21, 4-(6-(4-(piperazin-1-yl)phenyl)pyrazolo[1,5-a]pyrimidin-3-yl)-7-(pyrrolidin-1-ylmethyl)quinoline] | 17100 |
| O=C(O)c1cccc2c(-c3cnn4cc(-c5ccc(N6CCNCC6)cc5)cnc34)ccnc12 [Compound 22, 4-(6-(4-(piperazin-1-yl)phenyl)pyrazolo[1,5-a]pyrimidin-3-yl)quinoline-8-carboxylic acid] | 100000 |
| NC(=O)c1cccc2c(-c3cnn4cc(-c5ccc(N6CCNCC6)cc5)cnc34)ccnc12 [Compound 23, 4-(6-(4-(piperazin-1-yl)phenyl)pyrazolo[1,5-a]pyrimidin-3-yl)quinoline-8-carboxamide] | 37 |
| OCc1cccc2c(-c3cnn4cc(-c5ccc(N6CCNCC6)cc5)cnc34)ccnc12 [Compound 24, (4-(6-(4-(piperazin-1-yl)phenyl)pyrazolo[1,5-a]pyrimidin-3-yl)quinolin-8-yl)methanol] | 7840 |
| NCc1cccc2c(-c3cnn4cc(-c5ccc(N6CCNCC6)cc5)cnc34)ccnc12 [Compound 25, (4-(6-(4-(piperazin-1-yl)phenyl)pyrazolo[1,5-a]pyrimidin-3-yl)quinolin-8-yl)methanamine] | 1480 |
| CC(=O)Nc1ccc2c(-c3cnn4cc(-c5ccc(N6CCNCC6)cc5)cnc34)ccnc2c1 [Compound 26, N-(4-(6-(4-(piperazin-1-yl)phenyl)pyrazolo[1,5-a]pyrimidin-3-yl)quinolin-7-yl)acetamide] | 5100 |
| Nc1ccc2c(-c3cnn4cc(-c5ccc(N6CCNCC6)cc5)cnc34)ccnc2c1 [Compound 27, 4-(6-(4-(piperazin-1-yl)phenyl)pyrazolo[1,5-a]pyrimidin-3-yl)quinolin-7-amine] | 1960 |
| Oc1ccc2c(-c3cnn4cc(-c5ccc(N6CCNCC6)cc5)cnc34)ccnc2c1 [Compound 28, 4-(6-(4-(piperazin-1-yl)phenyl)pyrazolo[1,5-a]pyrimidin-3-yl)quinolin-7-ol] | 4190 |
| c1cc(-c2cnn3cc(-c4ccc(OCCN5CCCCC5)nc4)cnc23)c2cccnc2c1 [Compound 29, 5-(6-(6-(2-(piperidin-1-yl)ethoxy)pyridin-3-yl)pyrazolo[1,5-a]pyrimidin-3-yl)quinoline] | 67900 |
| c1cc(-c2cnn3cc(-c4ccc(N5CCNCC5)nc4)cnc23)c2cccnc2c1 [Compound 30, 5-(6-(6-(piperazin-1-yl)pyridin-3-yl)pyrazolo[1,5-a]pyrimidin-3-yl)quinoline] | 56800 |
| CC(C)(CN1CCCCC1)Oc1ccc(-c2cnc3c(-c4cccc5ncccc45)cnn3c2)cc1 [Compound 32, 5-(6-(4-((2-methyl-1-(piperidin-1-yl)propan-2-yl)oxy)phenyl)pyrazolo[1,5-a]pyrimidin-3-yl)quinoline] | 100000 |
| C[C@@H]1CNC[C@H](C)N1c1ccc(-c2cnc3c(-c4ccnc5ccccc45)cnn3c2)cn1 [Compound 33, 4-(6-(6-((2R,6S)-2,6-dimethylpiperazin-1-yl)pyridin-3-yl)pyrazolo[1,5-a]pyrimidin-3-yl)quinoline] | 928 |
| C[C@@H]1CNC[C@H](C)N1c1ccc(-c2cnc3c(-c4cccc5ncccc45)cnn3c2)cn1 [Compound 34] | 3870 |
| Clc1cc(-c2cnc3c(-c4ccnc5ccccc45)cnn3c2)ccc1N1CCNCC1 [Compound 35, 4-(6-(3-chloro-4-(piperazin-1-yl)phenyl)pyrazolo[1,5-a]pyrimidin-3-yl)quinoline] | 9620 |
| Clc1cc(-c2cnc3c(-c4cccc5ncccc45)cnn3c2)ccc1N1CCNCC1 [Compound 36, 5-(6-(3-chloro-4-(piperazin-1-yl)phenyl)pyrazolo[1,5-a]pyrimidin-3-yl)quinoline] | 11000 |
